Data reported in patent publication US20130012466A1 (priority 2006, published 2013).
Entries after “also recorded” stand apart in the source; their conditions may differ.

System: tubulin
Assay: In vitro tubulin polymerization assay (fluorescence-based)
Assay type: biochemical
Set-up: key to tubulin polymeriz.: ‘D’ designates destabilizer; ‘S’ designates stabilizer
Conditions: for effect on tubulin polymerization / microtubules: tested in duplicate on at least two days

Row | Molecule | tubulin polymeriz. | effect on tubulin polymerization / microtubules | effect on tubulin polymerization / microtubules (listed as 1)
1 | 19-(N-METHOXYAMINO-N-22-DEOXY-D-RIBOSYL)COLCHICINE [Col21] | S | stabilizing; also recorded: stabilized the microtubules | 
2 | COc1cc2c(c(OC)c1OC)-c1ccc(OC)c(=O)cc1[C@@H](NC(C)=O)CC2 [colchicine, reference compound] | D | destabilized microtubules | destabilizing
